Literature values as cited in patent publication US20230183323A1 (BROWN UNIVERSITY, priority 2020, published 2023).

Protein sequences, listed by entry. Tags and fused reporters are not part of them.
UniProt P11802, whole entry, species assumed: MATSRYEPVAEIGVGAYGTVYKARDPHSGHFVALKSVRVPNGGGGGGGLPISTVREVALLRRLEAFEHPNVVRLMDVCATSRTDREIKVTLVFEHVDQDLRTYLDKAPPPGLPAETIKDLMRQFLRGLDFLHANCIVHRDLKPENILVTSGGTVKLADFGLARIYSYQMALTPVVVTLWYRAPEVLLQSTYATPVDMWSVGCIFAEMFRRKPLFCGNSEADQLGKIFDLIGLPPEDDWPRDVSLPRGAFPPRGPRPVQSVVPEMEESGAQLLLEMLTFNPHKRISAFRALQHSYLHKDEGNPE
UniProt P06493, whole entry, species assumed: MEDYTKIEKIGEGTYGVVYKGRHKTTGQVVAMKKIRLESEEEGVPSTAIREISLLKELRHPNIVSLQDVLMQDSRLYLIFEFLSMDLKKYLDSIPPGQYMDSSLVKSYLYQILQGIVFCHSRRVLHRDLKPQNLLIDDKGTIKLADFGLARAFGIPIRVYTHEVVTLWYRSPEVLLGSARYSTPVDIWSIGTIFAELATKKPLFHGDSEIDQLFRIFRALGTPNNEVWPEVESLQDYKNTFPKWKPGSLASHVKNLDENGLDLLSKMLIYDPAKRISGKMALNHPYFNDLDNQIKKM

Columns and labels:
CDK4 = CDK4 (Homo sapiens, UniProt P11802); set-up: key to the marks not given beside the values; settings: cited from earlier work
CDK1 = CDK1 (Homo sapiens, UniProt P06493); set-up: key to the marks not given beside the values; settings: cited from earlier work

## COc1ccc2c(c1)/C(=C/c1cnc[nH]1)C(=O)N2
CDK4
  Inhibitory potency CDK4: ++
CDK1
  Inhibitory potency CDK1: +++
